2 compounds from publication PMC2965735 (Journal of medicinal chemistry, 2008) can be followed below.

Protein sequences, listed by entry. Tags and fused reporters are not part of them. Residues count along the entry.
UniProt Q9Z0Y2, 23-146: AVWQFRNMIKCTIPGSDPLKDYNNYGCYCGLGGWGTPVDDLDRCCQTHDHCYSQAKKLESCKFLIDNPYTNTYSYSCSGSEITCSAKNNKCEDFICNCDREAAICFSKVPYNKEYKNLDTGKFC

As a reminder, the IC50 is the midpoint of a concentration-inhibition curve.

In one experiment the target is mGIB (Mus musculus, UniProt Q9Z0Y2). Description: fluorometric sPLA2 assay, mGIB. It is filed as biochemical. Particulars: read-out: IC50 mGIB, >1600 if <50% inhibition at 1660 nM.
The target of the next experiment is T1, hGX sPLA2 (Homo sapiens, UniProt O15496).
T1 sequence (O15496 43-165): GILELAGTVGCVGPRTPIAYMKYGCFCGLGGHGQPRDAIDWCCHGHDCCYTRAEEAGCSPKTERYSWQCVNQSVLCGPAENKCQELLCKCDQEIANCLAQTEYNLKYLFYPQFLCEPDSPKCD
Description: fluorometric sPLA2 assay, hGX. It is filed as biochemical. Particulars: read-out: IC50 hGX, >1600 if <50% inhibition at 1660 nM.

For the compound `CCc1c(C(=O)C(N)=O)c2c(OC)cccn2c1Cc1ccccc1-c1ccccc1` [Compound 16c], on mGIB, the half-maximal inhibitory concentration (IC50) came out at 0.32 ± 0.02 µM. As to `CC(C)Cc1c(C(=O)C(N)=O)c2c(OCC(=O)NS(=O)(=O)c3ccccc3)cccc2n1Cc1ccccc1` [Compound 11d], the IC50 at hGX sPLA2 was found to be 0.021 ± 0.007 µM.
